According to patent US20260033491A1, “FUNGAL SPORE FORMULATIONS INCLUDING CARRIER FLUIDS” (priority 2018, published 2026):

What was measured:
Format in all cases: cell-based
[1] = tested on: Beauveria bassiana spores; experiment: Spore viability (germination rate) of Beauveria bassiana spores dispersed in fluid and stored at 30° C.
Method: (§1) 1.5 g of Beauveria bassiana pure spore powder were transferred into a formulation vessel (IKA Type DT-20 mixing vessel with dispersion tool for Ultra Turrax) using a sterile spoon. 13.5 mL of fluid were added into the respective formulation vessel and dispersed using ultra turrax tube drive control for 1 min at 3000 rpm; change direction after 30 sec. After this 2.8 mL were transferred in four sample bottles (Wheaton Serum vial, Type I) leaving little headspace and closed tight using crimpneck caps (Macherey—Nagel type N 13) Afterwards all sample bottles were transferred to an incubator set at 30° C. and stored for a given time.
(§2) In regular intervals a sample was retrieved from the storage location and analyzed for spore viability. Therefore the original samples were thoroughly homogenized. Aliquots of 0.25 g or 250 μL of each sample are transferred into 50 mL falcon tubes. The tubes were filled up to 25 g using a sterile aqueous solution containing 2% Tween 80 and homogenized by vortexing to achieve the first dilution step (1:100 dilution). This dilution was used for further dilution and spotting on agar.
Not all samples mixed well or mixed at all in 2% Tween 80. […]
(§3) For evaluation of spore germination rate prepare a 1:15000 dilution based on the 1:100 dilution achieved by multiple automated dilution (pipetting robot, 96 well plate). […] At least 200 spores per sample need to be evaluated. […]

[2] = tested on: Penicillium bilaii spores; experiment: Spore viability (germination rate) of Penicillium bilaii spores dispersed in fluid and stored at 30° C.
Method: as §1, with “Penicillium bilaii” for “Beauveria bassiana”
as §2
(§4) Not all samples mixed well or mixed at all in 2% Tween 80. For these samples, an alternative dispersion/dilution method was applied where the oil phase is stripped from the spores first: 0.25 g or 250 μL of sample are weighted into a 2 mL Eppendorf tube, and 0.5 mL of 2% Tween 80 is added, and the mixture is transferred into an Eppendorf centrifuge where it is centrifuged for 1 min at 10.000 rpm. The supernatant (=upper oily phase) is discarded by using a pipette. Afterwards 250 μL of Breakthru S 240 are added and the spores are well dispersed. 250 μL or 0.25 g of each sample are transferred into a sterile 50 mL Falcon tube. […]
as §3

[3] = tested on: Purpureocillium lilacinum spores; experiment: Spore viability (germination rate) of Purpureocillium lilacinum spores dispersed in fluid and stored at 30° C.
Method: as §1, with “3” for “1.5”, “Purpureocillium lilacinum” for “Beauveria bassiana”, “12” for “13.5”, “13).” for “13)”
as §2, with “For this purpose,” for “Therefore”, “were” for “are”
as §4, with “oil phase was stripped from” for “oil phase is stripped from”, “S 240 were added and” for “S 240 are added and”, “the spores were well dispersed.” for “the spores are well dispersed.”, “each sample were transferred into” for “each sample are transferred into”
For evaluation of spore germination rate prepare a 1:30000 dilution based on the 1:100 dilution achieved by multiple automated dilution (pipetting robot, 96 well plate). […] At least 200 spores per sample need to be evaluated. […]

Neopentylglycol dicocoate [Radialube 7302]
spore viability [%] after 2 w (14 d) [1]: 68.4% | spore viability [%] at day 1 [1]: 84.2% | spore viability [%] 3 m@30° C. (83-85 d) [2]: 70.2% | spore viability [%] 6 w@30° C. (41-43 d) [2]: 86.1% | spore viability [%] initial (1-2 d) [2]: 94.5% | spore viability [%] after 3 m (87-92 d) [3]: 83.1% | spore viability [%] after 5-6 w (35-40 d) [3]: 94.7% | spore viability [%] at day 1 [3]: 99.1%
